The text below walks through data of PMC7996082, “The translocator protein ligands as mitochondrial functional modulators for the potential anti-Alzheimer agents” (Journal of Enzyme Inhibition and Medicinal Chemistry, 2021).

Sequences of proteins named here, by UniProt entry; tags and fusion partners are left off.
UniProt P30536, whole entry: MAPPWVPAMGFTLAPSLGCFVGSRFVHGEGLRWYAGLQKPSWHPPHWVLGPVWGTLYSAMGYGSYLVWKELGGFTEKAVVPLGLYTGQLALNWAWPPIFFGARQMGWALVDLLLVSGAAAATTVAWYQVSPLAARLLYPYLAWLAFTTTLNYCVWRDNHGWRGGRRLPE

SMILES strings stand for the structures.

This assay has as its target T1, recombinant human TSPO (Homo sapiens, UniProt P30536).
T1 construct: purchased Origene Technologies, Inc. TP320107
As to the kind of experiment: Surface plasmon resonance (SPR) binding affinity. To be noted: mean ± SD of three measurements. The protocol: To determine the binding affinities of the selected compounds, the KD values were measured by using Biacore T200 optical biosensor system (GE Healthcare). The recombinant human TSPO (18 kDa, Origene Technologies, Inc., No.: TP320107) was covalently immobilised on a CM5 chip (GE Healthcare) at 25 °C via standard amine-coupling protocols in 10 mM sodium acetate (pH 4.5) at a flow rate of 10 µL/min for 1500s (immobilised protein densities: 5,000–6,000 response unit (RU)). The tested compounds were initially prepared at 10 mM in DMSO, and serially diluted in PBS-P buffer (10 mM NaH2PO4, 150 mM NaCl, pH 7.4) to 1% DMSO. For each tested compound, the kinetic values were measured using a five-point concentration series, 0.001, 0.01, 0.5, 1, and 5 µM. Multiple blank samples of running buffer alone (0 µM of tested compounds) were incorporated in every measurement. The filtered PBS-P buffer containing 1% DMSO was used as a running buffer during the SPR experiments. […] The KD value of each compound was calculated by Biacore T200 evaluation software (GE Healthcare) after the standard solvent correction process.

For orientation: Kd means the concentration at which binding is half-saturated. Regarding `CCC(C)N(C)C(=O)c1cc2ccccc2c(-c2ccccc2Cl)n1` (stereo not shown) [Compound 6, N-(sec-butyl)-1–(2-chlorophenyl)-N-methylisoquinoline-3-carboxamide, reference compound], the Kd worked out at 1.1 ± 0.45 nM.
